Test results taken from patent US20150368338A1 (Janssen / Centocor, published 2015).

Target: T1, IFN-αB2 (human, UniProt P32881 24-189)
T1 construct: also called IFN-α8; IFN alpha B2
Assay: ProteOn, one antigen concentration

B1: IFWM3291 (antibody, V domains shown)
VH: EVQLVQSGAEVKKPGESLKISCKGSGYSFTSYWIGWVRQMPGKGLEWMGIIDPSDSDTRYSPSFQGQVTISADKSISTAYLQWSSLKASDTAMYYCARHPGLNWAPDFDYWGQGTLVTVSS
VL: DIQMTQSPSSLSASVGDRVTITCRASQSIDEFLNWYQQKPGKAPKLLIYFASSLQSGVPSRFSGSGSGTDFTLTISSLQPEDFATYYCQQAHSFPLTFGQGTKVEIK
notes: VH IFWH591, VL IFWL999; converted mAb; also called IFWB3026
Kd: 0.06 nM

B2: IFWM3292 (antibody, V domains shown)
VH: EVQLVQSGAEVKKPGESLKISCKGSGYSFTSYWIGWVRQMPGKGLEWMGIIDPSDSDTAYSPSFQGQVTISADKSISTAYLQWSSLKASDTAMYYCARHPGLNWAPDFDYWGQGTLVTVSS
VL: DIQMTQSPSSLSASVGDRVTITCRASQSIDEFLNWYQQKPGKAPKLLIYFASSLQSGVPSRFSGSGSGTDFTLTISSLQPEDFATYYCQQAHSFPLTFGQGTKVEIK
notes: VH IFWH624, VL IFWL999; converted mAb; also called IFWB3027
Kd: 0.021 nM

B3: IFWM3301 (antibody, V domains shown)
VH: EVQLVQSGAEVKKPGESLKISCKGSGYSFTSYWIGWVRQMPGKGLEWMGIIDPSDSDTRYSPSFQGQVTISADKSISTAYLQWSSLKASDTAMYYCARHPGLNWAPDFDYWGQGTLVTVSS
VL: DIQMTQSPSSLSASVGDRVTITCRASQSIDGSLNWYQQKPGKAPKLLIYFASSLQSGVPSRFSGSGSGTDFTLTISSLQPEDFATYYCQQSYDFPLTFGQGTKVEIK
notes: VH IFWH591, VL IFWL983; converted mAb; also called IFWB3036
Kd: 0.039 nM

B4: IFWM3302 (antibody, V domains shown)
VH: EVQLVQSGAEVKKPGESLKISCKGSGYSFTSYWIGWVRQMPGKGLEWMGIIDPSDSDTRYSPSFQGQVTISADKSISTAYLQWSSLKASDTAMYYCARHPGLNWAPDFDYWGQGTLVTVSS
VL: DIQMTQSPSSLSASVGDRVTITCRASQSINRFLNWYQQKPGKAPKLLIYAASSLQSGVPSRFSGSGSGTDFTLTISSLQPEDFATYYCQQAIDLPFTFGQGTKVEIK
notes: VH IFWH591, VL IFWL991; converted mAb; also called IFWB3037
Kd: 0.054 nM

B5: IFWM3303 (antibody, V domains shown)
VH: EVQLVQSGAEVKKPGESLKISCKGSGYSFTSYWIGWVRQMPGKGLEWMGIIDPSDSDTRYSPSFQGQVTISADKSISTAYLQWSSLKASDTAMYYCARHPGLNWAPDFDYWGQGTLVTVSS
VL: DIQMTQSPSSLSASVGDRVTITCRASQSIGSFLNWYQQKPGKAPKLLIYFASSLQSGVPSRFSGSGSGTDFTLTISSLQPEDFATYYCQQSYSIPITFGQGTKVEIK
notes: VH IFWH591, VL IFWL992; converted mAb; also called IFWB3038
Kd: 0.032 nM

B6: IFWM3304 (antibody, V domains shown)
VH: EVQLVQSGAEVKKPGESLKISCKGSGYSFTSYWIGWVRQMPGKGLEWMGIIDPSDSDTRYSPSFQGQVTISADKSISTAYLQWSSLKASDTAMYYCARHPGLNWAPDFDYWGQGTLVTVSS
VL: DIQMTQSPSSLSASVGDRVTITCRASQSIGSALNWYQQKPGKAPKLLIYFASSLQSGVPSRFSGSGSGTDFTLTISSLQPEDFATYYCQQSYDFPLTFGQGTKVEIK
notes: VH IFWH591, VL IFWL997; converted mAb; also called IFWB3039
Kd: 0.04 nM

B7: IFWM3305 (antibody, V domains shown)
VH: EVQLVQSGAEVKKPGESLKISCKGSGYSFTSYWIGWVRQMPGKGLEWMGIIDPSDSDTRYSPSFQGQVTISADKSISTAYLQWSSLKASDTAMYYCARHPGLNWAPDFDYWGQGTLVTVSS
VL: DIQMTQSPSSLSASVGDRVTITCRASQSISKFLNWYQQKPGKAPKLLIYFASSLQSGVPSRFSGSGSGTDFTLTISSLQPEDFATYYCQQSNTLPFTFGQGTKVEIK
notes: VH IFWH591, VL IFWL998; converted mAb; also called IFWB3040
Kd: 0.017 nM

B8: IFWM3306 (antibody, V domains shown)
VH: EVQLVQSGAEVKKPGESLKISCKGSGYSFTSYWIGWVRQMPGKGLEWMGIIDPSDSDTRYSPSFQGQVTISADKSISTAYLQWSSLKASDTAMYYCARHPGLNWAPDFDYWGQGTLVTVSS
VL: DIQMTQSPSSLSASVGDRVTITCRASQSITNFLNWYQQKPGKAPKLLIYFASSLQSGVPSRFSGSGSGTDFTLTISSLQPEDFATYYCQQSLDFPLTFGQGTKVEIK
notes: VH IFWH591, VL IFWL1000; converted mAb; also called IFWB3041
Kd: 0.03 nM

B9: IFWM3308 (antibody, V domains shown)
VH: EVQLVQSGAEVKKPGESLKISCKGSGYSFTSYWIGWVRQMPGKGLEWMGIIDPSDSDTRYSPSFQGQVTISADKSISTAYLQWSSLKASDTAMYYCARHPGLNWAPDFDYWGQGTLVTVSS
VL: DIQMTQSPSSLSASVGDRVTITCRASQSIAEFLNWYQQKPGKAPKLLIYFASSLQSGVPSRFSGSGSGTDFTLTISSLQPEDFATYYCQQSIDFPLTFGQGTKVEIK
notes: VH IFWH591, VL IFWL1004; converted mAb; also called IFWB3043
Kd: 0.049 nM

B10: IFWM3309 (antibody, V domains shown)
VH: EVQLVQSGAEVKKPGESLKISCKGSGYSFTSYWIGWVRQMPGKGLEWMGIIDPSDSDTRYSPSFQGQVTISADKSISTAYLQWSSLKASDTAMYYCARHPGLNWAPDFDYWGQGTLVTVSS
VL: DIQMTQSPSSLSASVGDRVTITCRASQSIGGFLNWYQQKPGKAPKLLIYFASSLQSGVPSRFSGSGSGTDFTLTISSLQPEDFATYYCQQSYSLPITFGQGTKVEIK
notes: VH IFWH591, VL IFWL1006; converted mAb; also called IFWB3044
Kd: 0.041 nM

B11: IFWM3310 (antibody, V domains shown)
VH: EVQLVQSGAEVKKPGESLKISCKGSGYSFTSYWIGWVRQMPGKGLEWMGIIDPSDSDTRYSPSFQGQVTISADKSISTAYLQWSSLKASDTAMYYCARHPGLNWAPDFDYWGQGTLVTVSS
VL: DIQMTQSPSSLSASVGDRVTITCRASQSIGKSLNWYQQKPGKAPKLLIYFASSLQSGVPSRFSGSGSGTDFTLTISSLQPEDFATYYCQQSYDFPLTFGQGTKVEIK
notes: VH IFWH591, VL IFWL1007; converted mAb; also called IFWB3045
Kd: 0.063 nM

B12: IFWM3311 (antibody, V domains shown)
VH: EVQLVQSGAEVKKPGESLKISCKGSGYSFTSYWIGWVRQMPGKGLEWMGIIDPSDSDTRYSPSFQGQVTISADKSISTAYLQWSSLKASDTAMYYCARHPGLNWAPDFDYWGQGTLVTVSS
VL: DIQMTQSPSSLSASVGDRVTITCRASQSIDDFLNWYQQKPGKAPKLLIYFASSLQSGVPSRFSGSGSGTDFTLTISSLQPEDFATYYCQQSHTLPLTFGQGTKVEIK
notes: VH IFWH591, VL IFWL1009; converted mAb; also called IFWB3046
Kd: 0.016 nM

B13: IFWM3314 (antibody, V domains shown)
VH: EVQLVQSGAEVKKPGESLKISCKGSGYSFTSYWIGWVRQMPGKGLEWMGIIDPSDSDTRYSPSFQGQVTISADKSISTAYLQWSSLKASDTAMYYCARHPGLNWAPDFDYWGQGTLVTVSS
VL: DIQMTQSPSSLSASVGDRVTITCRASQSIDRALNWYQQKPGKAPKLLIYFASSLQSGVPSRFSGSGSGTDFTLTISSLQPEDFATYYCQQSFDFPLTFGQGTKVEIK
notes: VH IFWH591, VL IFWL1014; converted mAb; also called IFWB3049
Kd: 0.016 nM

B14: IFWM3315 (antibody, V domains shown)
VH: EVQLVQSGAEVKKPGESLKISCKGSGYSFTSYWIGWVRQMPGKGLEWMGIIDPSDSDTRYSPSFQGQVTISADKSISTAYLQWSSLKASDTAMYYCARHPGLNWAPDFDYWGQGTLVTVSS
VL: DIQMTQSPSSLSASVGDRVTITCRASQSITSSLNWYQQKPGKAPKLLIYFASSLQSGVPSRFSGSGSGTDFTLTISSLQPEDFATYYCQQSFDLPLTFGQGTKVEIK
notes: VH IFWH591, VL IFWL1017; converted mAb; also called IFWB3050
Kd: 0.092 nM

B15: IFWM3317 (antibody, V domains shown)
VH: EVQLVQSGAEVKKPGESLKISCKGSGYSFTSYWIGWVRQMPGKGLEWMGIIDPSDSDTRYSPSFQGQVTISADKSISTAYLQWSSLKASDTAMYYCARHPGLNWAPDFDYWGQGTLVTVSS
VL: DIQMTQSPSSLSASVGDRVTITCRASQSISKFLNWYQQKPGKAPKLLIYFASSLQSGVPSRFSGSGSGTDFTLTISSLQPEDFATYYCQQSYDFPITFGQGTKVEIK
notes: VH IFWH591, VL IFWL1026; converted mAb; also called IFWB3052
Kd: 0.011 nM

B16: IFWM3318 (antibody, V domains shown)
VH: EVQLVQSGAEVKKPGESLKISCKGSGYSFTSYWIGWVRQMPGKGLEWMGIIDPSDSDTRYSPSFQGQVTISADKSISTAYLQWSSLKASDTAMYYCARHPGLNWAPDFDYWGQGTLVTVSS
VL: DIQMTQSPSSLSASVGDRVTITCRASQSISEYLNWYQQKPGKAPKLLIYFASSLQSGVPSRFSGSGSGTDFTLTISSLQPEDFATYYCQQSHSLPITFGQGTKVEIK
notes: VH IFWH591, VL IFWL1038; converted mAb; also called IFWB3053
Kd: 0.048 nM

B17: IFWM3319 (antibody, V domains shown)
VH: EVQLVQSGAEVKKPGESLKISCKGSGYSFTSYWIGWVRQMPGKGLEWMGIIDPSDSDTRYSPSFQGQVTISADKSISTAYLQWSSLKASDTAMYYCARHPGLNWAPDFDYWGQGTLVTVSS
VL: DIQMTQSPSSLSASVGDRVTITCRASQSITGFLNWYQQKPGKAPKLLIYAASSLQSGVPSRFSGSGSGTDFTLTISSLQPEDFATYYCQQSHDFPLTFGQGTKVEIK
notes: VH IFWH591, VL IFWL1041; converted mAb; also called IFWB3054
Kd: 0.076 nM

B18: IFWM3320 (antibody, V domains shown)
VH: EVQLVQSGAEVKKPGESLKISCKGSGYSFTSYWIGWVRQMPGKGLEWMGIIDPSDSDTRYSPSFQGQVTISADKSISTAYLQWSSLKASDTAMYYCARHPGLNWAPDFDYWGQGTLVTVSS
VL: DIQMTQSPSSLSASVGDRVTITCRASQSINGVLNWYQQKPGKAPKLLIYFASSLQSGVPSRFSGSGSGTDFTLTISSLQPEDFATYYCQQSHDFPLTFGQGTKVEIK
notes: VH IFWH591, VL IFWL1047; converted mAb; also called IFWB3055
Kd: 0.026 nM

B19: IFWM3321 (antibody, V domains shown)
VH: EVQLVQSGAEVKKPGESLKISCKGSGYSFTSYWIGWVRQMPGKGLEWMGIIDPSDSDTRYSPSFQGQVTISADKSISTAYLQWSSLKASDTAMYYCARHPGLNWAPDFDYWGQGTLVTVSS
VL: DIQMTQSPSSLSASVGDRVTITCRASQSIDGALNWYQQKPGKAPKLLIYFASSLQSGVPSRFSGSGSGTDFTLTISSLQPEDFATYYCQQAYDFPLTFGQGTKVEIK
notes: VH IFWH591, VL IFWL1048; converted mAb; also called IFWB3056
Kd: 0.045 nM

B20: IFWM3322 (antibody, V domains shown)
VH: EVQLVQSGAEVKKPGESLKISCKGSGYSFTSYWIGWVRQMPGKGLEWMGIIDPSDSDTRYSPSFQGQVTISADKSISTAYLQWSSLKASDTAMYYCARHPGLNWAPDFDYWGQGTLVTVSS
VL: DIQMTQSPSSLSASVGDRVTITCRASQSIADFLNWYQQKPGKAPKLLIYFASSLQSGVPSRFSGSGSGTDFTLTISSLQPEDFATYYCQQSHSFPLTFGQGTKVEIK
notes: VH IFWH591, VL IFWL1051; converted mAb; also called IFWB3057
Kd: 0.056 nM

B21: IFWM3325 (antibody, V domains shown)
VH: EVQLVQSGAEVKKPGESLKISCKGSGYSFTSYWIGWVRQMPGKGLEWMGIIDPSDSDTRYSPSFQGQVTISADKSISTAYLQWSSLKASDTAMYYCARHPGLNWAPDFDYWGQGTLVTVSS
VL: DIQMTQSPSSLSASVGDRVTITCRASQSIRNSLNWYQQKPGKAPKLLIKWASSLQSGVPSRFSGSGSGTDFTLTISSLQPEDFATYYCQQLYDWPLTFGQGTKVEIK
notes: VH IFWH591, VL IFWL1060; converted mAb; also called IFWB3060
Kd: 0.006 nM

B22: IFWM3340 (antibody, V domains shown)
VH: EVQLVQSGAEVKKPGESLKISCKGSGYSFTSYWIGWVRQMPGKGLEWMGIIDPSDSDTAYSPSFQGQVTISADKSISTAYLQWSSLKASDTAMYYCARHPGLNWAPDFDYWGQGTLVTVSS
VL: DIQMTQSPSSLSASVGDRVTITCRASQSIDGSLNWYQQKPGKAPKLLIYFASSLQSGVPSRFSGSGSGTDFTLTISSLQPEDFATYYCQQSYDFPLTFGQGTKVEIK
notes: VH IFWH624, VL IFWL983; converted mAb; also called IFWB3075
Kd: 0.008 nM
